From article PMC7265341 (2020)
Values joined by “and” are separate entries in the source; they are usually repeats but may differ in a detail not shown here. Identical values can stand only once. Like-named read-outs stand apart in the source and are kept apart here. Each block holds one molecule with its values, some of them ahead of it.

Chains of the proteins cited; added tags and fusions are not shown. Lines headed by an entry give the natural chain unless they say otherwise; changes in a name come on top.
UniProt P06493, whole entry: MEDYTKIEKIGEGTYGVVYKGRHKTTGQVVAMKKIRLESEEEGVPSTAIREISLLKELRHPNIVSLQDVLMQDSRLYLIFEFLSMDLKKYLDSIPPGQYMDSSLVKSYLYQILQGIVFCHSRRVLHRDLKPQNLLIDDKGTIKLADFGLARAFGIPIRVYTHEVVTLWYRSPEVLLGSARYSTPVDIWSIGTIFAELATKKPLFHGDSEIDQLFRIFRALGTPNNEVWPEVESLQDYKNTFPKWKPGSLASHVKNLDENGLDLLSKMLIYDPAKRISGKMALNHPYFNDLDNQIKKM
UniProt O94921: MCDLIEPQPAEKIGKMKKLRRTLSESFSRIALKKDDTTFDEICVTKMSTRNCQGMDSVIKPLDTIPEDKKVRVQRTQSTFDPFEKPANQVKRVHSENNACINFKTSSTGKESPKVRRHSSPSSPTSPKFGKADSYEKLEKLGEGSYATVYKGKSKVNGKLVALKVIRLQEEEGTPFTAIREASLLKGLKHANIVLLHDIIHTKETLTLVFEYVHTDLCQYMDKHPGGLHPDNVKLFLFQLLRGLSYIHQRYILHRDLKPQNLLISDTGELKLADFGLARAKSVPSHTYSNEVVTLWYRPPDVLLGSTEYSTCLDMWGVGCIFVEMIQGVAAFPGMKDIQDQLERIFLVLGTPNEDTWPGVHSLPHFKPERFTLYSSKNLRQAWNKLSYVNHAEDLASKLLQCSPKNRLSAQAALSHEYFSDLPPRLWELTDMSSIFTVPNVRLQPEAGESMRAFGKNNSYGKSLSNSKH
UniProt Q96Q40: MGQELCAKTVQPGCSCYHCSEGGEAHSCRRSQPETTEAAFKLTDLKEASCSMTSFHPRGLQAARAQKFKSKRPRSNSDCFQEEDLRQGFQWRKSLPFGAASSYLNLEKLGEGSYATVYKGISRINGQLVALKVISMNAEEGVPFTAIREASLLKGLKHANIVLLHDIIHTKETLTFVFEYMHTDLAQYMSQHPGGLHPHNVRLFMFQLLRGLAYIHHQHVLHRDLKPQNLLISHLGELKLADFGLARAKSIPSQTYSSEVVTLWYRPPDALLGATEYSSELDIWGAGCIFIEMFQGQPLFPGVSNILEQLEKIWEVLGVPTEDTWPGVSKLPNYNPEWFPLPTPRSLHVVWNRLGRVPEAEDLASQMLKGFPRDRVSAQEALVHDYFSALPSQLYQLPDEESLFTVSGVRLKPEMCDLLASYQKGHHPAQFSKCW
UniProt Q07002: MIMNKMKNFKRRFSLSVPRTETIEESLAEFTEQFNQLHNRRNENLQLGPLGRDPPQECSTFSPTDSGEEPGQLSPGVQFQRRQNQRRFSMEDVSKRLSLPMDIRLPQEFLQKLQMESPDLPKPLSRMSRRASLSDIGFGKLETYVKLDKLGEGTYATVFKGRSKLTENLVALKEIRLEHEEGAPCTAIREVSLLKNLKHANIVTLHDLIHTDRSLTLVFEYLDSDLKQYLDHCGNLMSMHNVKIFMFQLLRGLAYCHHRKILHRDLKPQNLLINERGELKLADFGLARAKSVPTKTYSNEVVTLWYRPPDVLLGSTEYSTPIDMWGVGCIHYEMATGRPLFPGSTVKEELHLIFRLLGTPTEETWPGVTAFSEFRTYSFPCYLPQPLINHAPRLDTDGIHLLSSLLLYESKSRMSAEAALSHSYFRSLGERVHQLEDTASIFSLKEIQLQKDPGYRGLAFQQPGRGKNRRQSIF
UniProt Q00526: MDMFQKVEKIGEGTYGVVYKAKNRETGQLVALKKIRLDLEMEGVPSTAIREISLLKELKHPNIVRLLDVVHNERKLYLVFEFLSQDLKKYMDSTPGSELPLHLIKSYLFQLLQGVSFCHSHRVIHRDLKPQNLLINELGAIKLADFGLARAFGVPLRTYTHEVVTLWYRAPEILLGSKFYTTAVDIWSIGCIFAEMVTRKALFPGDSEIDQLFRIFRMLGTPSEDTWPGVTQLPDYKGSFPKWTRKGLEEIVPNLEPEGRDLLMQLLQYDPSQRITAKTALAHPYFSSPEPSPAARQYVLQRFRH
UniProt Q00537: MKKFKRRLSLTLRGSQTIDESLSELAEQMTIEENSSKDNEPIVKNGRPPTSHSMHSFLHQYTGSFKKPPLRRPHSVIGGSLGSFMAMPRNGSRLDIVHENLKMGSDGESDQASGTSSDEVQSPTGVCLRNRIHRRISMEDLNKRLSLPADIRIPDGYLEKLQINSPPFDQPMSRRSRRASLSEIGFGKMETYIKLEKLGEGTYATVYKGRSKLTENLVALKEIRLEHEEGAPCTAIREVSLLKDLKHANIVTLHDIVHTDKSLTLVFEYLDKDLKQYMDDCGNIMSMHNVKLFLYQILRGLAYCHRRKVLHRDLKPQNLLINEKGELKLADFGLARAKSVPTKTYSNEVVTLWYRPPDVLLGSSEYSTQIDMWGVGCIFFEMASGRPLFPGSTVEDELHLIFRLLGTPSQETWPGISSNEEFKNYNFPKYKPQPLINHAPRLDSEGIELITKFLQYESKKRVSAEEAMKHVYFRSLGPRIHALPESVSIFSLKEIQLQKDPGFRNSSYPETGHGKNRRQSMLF
UniProt Q00536: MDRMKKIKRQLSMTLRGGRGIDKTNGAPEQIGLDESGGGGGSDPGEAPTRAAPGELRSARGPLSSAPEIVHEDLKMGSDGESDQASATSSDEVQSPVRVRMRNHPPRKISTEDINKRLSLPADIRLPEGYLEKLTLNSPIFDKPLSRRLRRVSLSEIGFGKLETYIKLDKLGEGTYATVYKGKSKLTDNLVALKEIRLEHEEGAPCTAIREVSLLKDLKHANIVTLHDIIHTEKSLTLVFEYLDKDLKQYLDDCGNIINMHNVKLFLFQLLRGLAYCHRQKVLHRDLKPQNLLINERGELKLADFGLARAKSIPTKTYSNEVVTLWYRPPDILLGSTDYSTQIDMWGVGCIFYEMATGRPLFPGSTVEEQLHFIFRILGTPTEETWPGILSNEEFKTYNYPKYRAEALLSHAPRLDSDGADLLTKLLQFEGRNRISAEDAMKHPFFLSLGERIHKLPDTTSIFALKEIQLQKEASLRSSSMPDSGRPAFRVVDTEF
UniProt P50750, whole entry: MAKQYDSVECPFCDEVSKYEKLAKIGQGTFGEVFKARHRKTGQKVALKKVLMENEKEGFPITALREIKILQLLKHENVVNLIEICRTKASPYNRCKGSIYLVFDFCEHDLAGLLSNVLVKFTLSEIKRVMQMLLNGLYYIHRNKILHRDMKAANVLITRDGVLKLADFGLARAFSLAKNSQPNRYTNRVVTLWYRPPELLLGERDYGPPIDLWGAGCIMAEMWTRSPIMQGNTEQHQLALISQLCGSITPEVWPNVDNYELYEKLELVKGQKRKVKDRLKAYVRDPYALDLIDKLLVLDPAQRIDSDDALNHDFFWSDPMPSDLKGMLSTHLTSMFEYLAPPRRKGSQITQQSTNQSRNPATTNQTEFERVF
UniProt Q00535, whole entry: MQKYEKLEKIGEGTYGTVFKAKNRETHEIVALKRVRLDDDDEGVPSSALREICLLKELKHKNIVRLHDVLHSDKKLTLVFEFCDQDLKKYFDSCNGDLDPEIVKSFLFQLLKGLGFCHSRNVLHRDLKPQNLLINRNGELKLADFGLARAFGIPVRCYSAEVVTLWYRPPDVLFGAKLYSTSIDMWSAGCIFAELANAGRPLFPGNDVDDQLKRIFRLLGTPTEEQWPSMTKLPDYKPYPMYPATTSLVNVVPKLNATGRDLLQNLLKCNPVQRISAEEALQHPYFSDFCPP
UniProt P50613: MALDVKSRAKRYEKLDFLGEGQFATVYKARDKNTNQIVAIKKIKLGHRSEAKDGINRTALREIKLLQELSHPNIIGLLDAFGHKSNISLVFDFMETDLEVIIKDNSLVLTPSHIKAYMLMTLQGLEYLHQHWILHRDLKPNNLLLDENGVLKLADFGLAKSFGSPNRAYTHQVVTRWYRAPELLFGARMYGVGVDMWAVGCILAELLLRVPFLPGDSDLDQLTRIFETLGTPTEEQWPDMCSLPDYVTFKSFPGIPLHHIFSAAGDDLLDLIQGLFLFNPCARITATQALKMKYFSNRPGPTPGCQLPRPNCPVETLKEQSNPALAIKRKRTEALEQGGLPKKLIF

What was measured:
CDK1/Cyclin E1 = CDK1/Cyclin E1 (Homo sapiens, UniProt P06493); test: NanoBRET live-cell target engagement, CDK1-NanoLuc/Cyclin E1 in HEK-293
CDK14/Cyclin Y = CDK14/Cyclin Y (Homo sapiens, UniProt O94921); test: NanoBRET live-cell target engagement, CDK14-NanoLuc/Cyclin Y in HEK-293
CDK2/Cyclin E1 = CDK2/Cyclin E1 (Homo sapiens, UniProt P24941); test: NanoBRET live-cell target engagement, CDK2-NanoLuc/Cyclin E1 in HEK-293; conditions: read-out: CDK2/E1 Inhibition at 10µM (%), 10µM
CDK15/Cyclin Y = CDK15/Cyclin Y (Homo sapiens, UniProt Q96Q40); test: NanoBRET live-cell target engagement, NanoLuc-CDK15/Cyclin Y in HEK-293; conditions: read-out: CDK15/Y Inhibition at 10µM (%), 10µM
CDK18/Cyclin Y = CDK18/Cyclin Y (Homo sapiens, UniProt Q07002); test: NanoBRET live-cell target engagement, CDK18-NanoLuc/Cyclin Y in HEK-293; conditions: read-out: CDK18/Y Inhibition at 10µM (%), 10µM
CDK3/Cyclin E1 = CDK3/Cyclin E1 (Homo sapiens, UniProt Q00526); test: NanoBRET live-cell target engagement, CDK3-NanoLuc/Cyclin E1 in HEK-293; conditions: read-out: CDK3/E1 Inhibition at 10µM (%), 10µM
CDK17/Cyclin Y = CDK17/Cyclin Y (Homo sapiens, UniProt Q00537); test: NanoBRET live-cell target engagement, CDK17-NanoLuc/Cyclin Y in HEK-293; conditions: read-out: CDK17/Y Inhibition at 10µM (%), 10µM
CDK16/Cyclin Y = CDK16/Cyclin Y (Homo sapiens, UniProt Q00536); test: NanoBRET live-cell target engagement, CDK16-NanoLuc/Cyclin Y in HEK-293; conditions: read-out: CDK16/Y Inhibition at 10µM (%), 10µM
CDK9/Cyclin K = CDK9/Cyclin K (Homo sapiens, UniProt P50750); test: NanoBRET live-cell target engagement, NanoLuc-CDK9/Cyclin K in HEK-293; type: binding; conditions: CDK9/K IC50 (nM)
CDK5/CDK5R1 = CDK5/CDK5R1 (Homo sapiens, UniProt Q00535); test: NanoBRET live-cell target engagement, CDK5-NanoLuc/CDK5R1 in HEK-293
CDK7 = CDK7 (Homo sapiens, UniProt P50613); test: NanoBRET live-cell target engagement, NanoLuc-CDK7 in HEK-293; conditions: read-out: Inhibition at 10µM (%), CDK7
[1] = read-out: Inhibition at 10µM (%)

inhibition at 10 µM (CDK1/Cyclin E1; read-out: CDK1/E1 Inhibition at 10µM (%), 10µM, average of experiments): 11.3% | inhibition at 10 µM (CDK1/Cyclin E1; read-out: CDK1/E1 Inhibition at 10µM (%), 10µM, independent experiment 1): 4.6% | inhibition at 10 µM (CDK1/Cyclin E1; read-out: CDK1/E1 Inhibition at 10µM (%), 10µM, independent experiment 2): 18% | inhibition at 10 µM (CDK14/Cyclin Y; read-out: CDK14/Y Inhibition at 10µM (%), 10µM, average of experiments): 2.2% | inhibition at 10 µM (CDK14/Cyclin Y; read-out: CDK14/Y Inhibition at 10µM (%), 10µM, independent experiment 1): 7.5% | inhibition at 10 µM (CDK14/Cyclin Y; read-out: CDK14/Y Inhibition at 10µM (%), 10µM, independent experiment 2): -3.1% | inhibition at 10 µM (CDK2/Cyclin E1; average of experiments): -5.1% | inhibition at 10 µM (CDK2/Cyclin E1; independent experiment 1): -14.3% | inhibition at 10 µM (CDK2/Cyclin E1; independent experiment 2): 4% | inhibition at 10 µM (CDK15/Cyclin Y; average of experiments): 9.8% | inhibition at 10 µM (CDK15/Cyclin Y; independent experiment 1): 0.338% | inhibition at 10 µM (CDK15/Cyclin Y; independent experiment 2): 19.3% | inhibition at 10 µM (CDK18/Cyclin Y; average of experiments): 10.6% | inhibition at 10 µM (CDK18/Cyclin Y; independent experiment 1): 10.4% | inhibition at 10 µM (CDK18/Cyclin Y; independent experiment 2): 10.8% | inhibition at 10 µM (CDK3/Cyclin E1; average of experiments): 8% | inhibition at 10 µM (CDK3/Cyclin E1; independent experiment 1): 7.3% | inhibition at 10 µM (CDK3/Cyclin E1; independent experiment 2): 8.6% | inhibition at 10 µM (CDK17/Cyclin Y; average of experiments): 25.8% | inhibition at 10 µM (CDK17/Cyclin Y; independent experiment 1): 28.9% | inhibition at 10 µM (CDK17/Cyclin Y; independent experiment 2): 22.6% | inhibition at 10 µM (CDK16/Cyclin Y; independent experiment 1): 34.3% | inhibition at 10 µM (CDK16/Cyclin Y; independent experiment 2): 23.2%
SMILES: CN(C)C(=O)c1cc2cnc(Nc3ccc(N4CCNCC4)cn3)nc2n1C1CCCC1

IC50 (CDK9/Cyclin K): 11 nM and 7.6 nM and 9.3 nM
SMILES: CN1C/C=C/CCOc2cccc(c2)-c2ccnc(n2)Nc2cccc(c2)C1 [SB1317]

SMILES: CCN1CCN(Cc2ccc(Nc3ncc(F)c(-c4cc(F)c5nc(C)n(C(C)C)c5c4)n3)nc2)CC1 [Abemaciclib]
IC50 (CDK14/Cyclin Y; IC50 (nM) Average*, CDK14/Y, n=3 average ± SEM, n=2 average to 2 significant figures): 440 ± 90 nM | IC50 (CDK14/Cyclin Y; IC50 (nM) Replicate 1, CDK14/Y): 296 nM | IC50 (CDK14/Cyclin Y; IC50 (nM) Replicate 2, CDK14/Y): 420 nM | IC50 (CDK14/Cyclin Y; IC50 (nM) Replicate 3, CDK14/Y): 597 nM | inhibition at 10 µM (CDK14/Cyclin Y; read-out: Inhibition at 10µM (%) Average, CDK14/Y, 10µM, average of replicates): 63.2% | inhibition at 10 µM (CDK14/Cyclin Y; read-out: Inhibition at 10µM (%) Replicate 1, CDK14/Y, 10µM): 68.9% | inhibition at 10 µM (CDK14/Cyclin Y; read-out: Inhibition at 10µM (%) Replicate 2, CDK14/Y, 10µM): 57.5%

SMILES: NS(=O)(=O)c1ccc(Nc2nc(OCC3CCCCC3)c3nc[nH]c3n2)cc1 [NU6102]
Inhibition at 10µM (%) (CDK1/Cyclin E1; 10 µM): 96.1% and 91.7% | inhibition at 10 µM (CDK1/Cyclin E1; [1]): 87.3% | Inhibition at 10µM (%) (CDK5/CDK5R1; 10 µM): 66.8% and 74.5% | inhibition at 10 µM (CDK5/CDK5R1; [1]): 82.2% | inhibition at 10 µM (CDK7; average): 45.2% | inhibition at 10 µM (CDK7; experiment 1): 16.7% | inhibition at 10 µM (CDK7; experiment 2): 73.8%
